Patent US20100240883A1, “Lipid-drug conjugates for drug delivery” (priority 2009, published 2010)

What was measured:
[1] = 37° C., estimated half-life; for t1/2 human plasma α: α position ester; for t1/2 human plasma β: β position ester
[2] = β position ester; 10 mM KH2PO4 buffered saline pH 7.4, 37° C., 100 to 200 μM prodrug; estimated half-life, pseudo-first-order

Row | Substance | t1/2 human plasma α [1] | t1/2 human plasma β [1] | t1/2 buffered saline (pH 7.4) β [2]
1 | L-N-oleoyl-alanyl-lamivudine | 12.0 ± 1.1 min | 5.4 ± 0.7 min | 
2 | D-N-oleoyl-lysyl-lamivudine | 22.3 ± 2.8 min | 7.9 ± 1.6 min | 452.0 ± 9.1 min
3 | L-N-oleoyl-lysyl-lamivudine |  | 8.0 ± 0.1 min | 467.0 ± 7.2 min
